Measured values published in PubChem BioAssay AID1321 (The Scripps Research Institute Molecular Screening Center, 2008).
This is a selection; strong and weak results do not stand in their true shares. Active and inactive are the calls of the source.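 Rule for the calls: active = activation above the mean of all tested compounds plus 3 SD, set per screening run (cut at about 8.8% in these data); inactive = the rest.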

Chains of the proteins cited; added tags and fusions are not shown. Lines headed by an entry give the natural chain unless they say otherwise; changes in a name come on top.
UniProt P30291: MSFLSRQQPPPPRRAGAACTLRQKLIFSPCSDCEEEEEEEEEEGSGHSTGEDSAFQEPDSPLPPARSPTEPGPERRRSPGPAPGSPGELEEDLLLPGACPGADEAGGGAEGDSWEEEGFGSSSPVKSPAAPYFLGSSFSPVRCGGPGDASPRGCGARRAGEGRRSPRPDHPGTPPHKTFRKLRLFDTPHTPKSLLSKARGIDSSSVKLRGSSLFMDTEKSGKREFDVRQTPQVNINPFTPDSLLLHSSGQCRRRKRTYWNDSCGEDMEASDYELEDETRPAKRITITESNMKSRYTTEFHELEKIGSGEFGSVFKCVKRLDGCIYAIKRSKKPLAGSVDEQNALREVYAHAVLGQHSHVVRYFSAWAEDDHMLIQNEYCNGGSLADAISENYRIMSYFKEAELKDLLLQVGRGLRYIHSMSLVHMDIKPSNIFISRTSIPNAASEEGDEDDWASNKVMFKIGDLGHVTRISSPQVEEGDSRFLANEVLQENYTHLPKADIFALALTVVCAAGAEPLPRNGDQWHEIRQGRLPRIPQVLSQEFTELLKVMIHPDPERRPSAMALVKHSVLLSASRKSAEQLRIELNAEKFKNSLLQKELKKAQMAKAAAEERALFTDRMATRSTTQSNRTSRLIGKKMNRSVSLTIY

target: Wee1-like protein kinase (Homo sapiens) (UniProt P30291); assay: compounds stabilizing Wee1-luciferase fusion – cell-based, HeLa, Wee1K328M-luciferase, luminescence, primary screen (AID 1321); details: HeLa Luc-Wee1K328M stability, at 5 µM, hits give high values, 100% = proteasome inhibitor MG132 effect;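 note: cells exposed to compound for 20 h before luminescence read; 0% = DMSO alone and 100% = MG132 at 30 µM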

Row | Structure (SMILES) | reporter increase
1 | CCOC(=O)Nc1cccc([As](=O)(O)O)c1 | inactive: -0.7%
2 | O=[N+]([O-])c1ccc(Nc2ccc(Oc3ccc([N+](=O)[O-])cc3[N+](=O)[O-])cc2)c([N+](=O)[O-])c1 | inactive: -0.66%
3 | Cc1cc(SC(NC=O)C(Cl)(Cl)Cl)ncn1 (stereo unspecified) | inactive: -0.44%
4 | O=P(Nc1ccccn1)(c1cccc2ccccc12)c1cccc2ccccc12 | active: 19.9%
5 | CCOC(=O)Nc1ccc([As](=O)(O)O)c(O)c1 | inactive: 1.02%
6 | Cc1cc(SC(NC(=O)c2ccccc2)C(Cl)(Cl)Cl)nc(C(C)C)n1 (stereo unspecified) | inactive: -3.27%
7 | CC(C)c1ccc(OP(=O)(Nc2ccccn2)Oc2ccccc2F)cc1 (stereo unspecified) | inactive: -2.47%
8 | ClCCSc1nnc(-c2cccnc2)o1 | inactive: 1.2%
9 | O=[N+]([O-])c1cc([N+](=O)[O-])c(-c2ccn[nH]2)s1 | inactive: 1.54%
10 | CC(C)NC(=O)NP(=O)(Oc1ccccc1)Oc1ccccc1 | inactive: 3.32%
11 | CCN(CC)C(=S)SC(NC=O)C(Cl)(Cl)Cl (stereo unspecified) | inactive: -1.25%
12 | C[As](=O)(O)c1cccc(C(=O)O)c1 | inactive: 1.27%
13 | O=[As](O)(c1ccc(O)cc1)c1ccccc1O | inactive: -1.83%
14 | Cc1ccc2nc3c(c(C)c2c1)CC(C(Cl)Cl)S3 (stereo unspecified) | inactive: 0.24%
15 | Cc1ccc(OP(=O)(Nc2ccc([N+](=O)[O-])cn2)Oc2ccc(C)cc2)cc1 | inactive: -2.27%
16 | COc1ccc(N/C(=N/P(=O)(N2CCOCC2)N2CCOCC2)N2CCOCC2)cc1 | inactive: 4.03%
17 | Cc1cc(=O)[nH]c(N[N+](=O)[O-])n1 | inactive: -2.57%
18 | O=C(OC1CN2CCC1CC2)C12CC3CC(CC(C3)C1)C2 (stereo unspecified) | inactive: 0.66%
19 | Cc1c2c(nc3ccccc13)SC(C(Cl)Cl)C2 (stereo unspecified) | inactive: 1.19%
20 | COc1cc(I)ccc1[As](=O)(O)O | inactive: 8.49%
21 | COc1ccc2nc(NP(=O)(c3ccccc3)c3ccccc3)sc2c1 | inactive: -0.27%
